Test results as given in patent US7816331B2, “Substituted indazole-O-glucosides” (Janssen Pharmaceutica NV, priority 2003, dated 2010).

Molecular target: T1, human SGLT2 (Homo sapiens, UniProt P31639)
T1 construct: expressed in transfected cells
T1 sequence (P31639 1-672): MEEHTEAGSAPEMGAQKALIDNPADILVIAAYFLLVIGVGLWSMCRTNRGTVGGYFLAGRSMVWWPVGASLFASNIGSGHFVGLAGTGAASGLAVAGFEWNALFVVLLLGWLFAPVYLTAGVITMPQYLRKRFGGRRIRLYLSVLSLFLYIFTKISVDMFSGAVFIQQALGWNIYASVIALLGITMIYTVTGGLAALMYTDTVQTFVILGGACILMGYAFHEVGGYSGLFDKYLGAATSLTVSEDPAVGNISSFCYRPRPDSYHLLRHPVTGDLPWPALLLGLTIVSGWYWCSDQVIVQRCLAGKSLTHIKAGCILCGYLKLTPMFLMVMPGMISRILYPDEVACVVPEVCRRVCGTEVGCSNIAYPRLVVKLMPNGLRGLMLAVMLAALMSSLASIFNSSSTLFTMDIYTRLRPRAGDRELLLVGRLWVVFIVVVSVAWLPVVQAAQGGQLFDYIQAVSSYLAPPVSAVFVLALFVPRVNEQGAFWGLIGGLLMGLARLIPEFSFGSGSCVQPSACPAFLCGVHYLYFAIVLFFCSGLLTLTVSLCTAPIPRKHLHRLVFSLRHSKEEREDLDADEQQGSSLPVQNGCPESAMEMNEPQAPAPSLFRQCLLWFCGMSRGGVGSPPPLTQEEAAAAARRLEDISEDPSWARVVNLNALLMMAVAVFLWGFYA
Experiment: Cell-based assay for sodium-dependent glucose transport (14C-AMG uptake), CHOK-SGLT2
Conditions: CHO-K1 cells stably expressing human SGLT2; Na-dependent 14C-AMG uptake; read-out: CHOK-SGLT2 IC50 (uM) ± SEM
Procedure: Cloning of the human SGLT1 and human SGLT2 cDNAs and construction of the mammalian expression vector: The human SGLT1 cDNA (Genbank M24847) was cloned from human small intestine. Human SGLT2 cDNA (Genbank M95549) was cloned from human kidney. Both full cDNAs were subcloned into pcDNA and sequenced to verify the integrity of the construct. Generation of CHO-K1 cells stably expressing human SGLT1 or human SGLT2: Transfection of CHO-K1 cells was performed using DMRIE-C reagent (Life Technologies, Gaithersburg, Md.). Transfectants were then selected in the presence of the antibiotic G418 (Gibco-BRL, Grand Island, N.Y.) at 400 μg/ml. Individual clones were then characterized using the functional assay described below. Cell-based assay for sodium-dependent glucose transport: Cell lines stably expressing human SGLT1 or SGLT2 were then used for functional analysis of Na^+-dependent glucose uptake. Briefly, cells were plated at a density of 65,000 cells per well in a 96-well plate and allowed to grow for 48 hours. […] After aspiration, cells were solubilized using Microscint 20 (Packard, Meriden, Conn.) and Na-dependent ^14C-AMG uptake was quantified by measuring radioactivity. Plates were counted in a TopCount (Packard, Meriden, Conn.). […]

IC50: 0.491 ± 0.056 µM
Structure (SMILES): Cc1cc(O[C@@H]2OC(CO)[C@@H](O)[C@H](O)[C@H]2O)c2c(CCc3ccc4occc4c3)n[nH]c2c1 (stereo partly drawn) [Example 13, 2-[3-(2-Benzofuran-5-yl-ethyl)-6-methyl-1H-indazol-4-yloxy]-β-D-glucopyranoside]
